target: AXL (Homo sapiens, UniProt P30530); experiment: TR-FRET kinase activity assay, AXL; conditions: read-out: Axl IC50, ATP at Km, 60 minutes
Protocol: (§1) IC50 values for compound inhibition of AXL, FLT3, MERTK and TYRO3 activity were determined by using a TR-FRET activity assay. A polypeptide substrate with a fluorescent label is phosphorylated on a tyrosine by each enzyme, where the now phosphorylated product is bound by a Europium-labeled antibody specific to that phosphorylation site. The proximity between the antibody and the substrate gives a signal known as TR-FRET. As the enzyme is inhibited by compound, less phosphorylated peptide product is made causing a decrease in overall signal.
(§2) Activity assays were performed in a 384-well, small volume, black microplates in an active enzyme volume of 10 μL and final developed volume of 20 μL. Final assay conditions are 50 mM HEPES pH 7.5, 10 mM MgCl2, 1 mM EGTA, 0.01% Brij 35 and 1 mM DTT all at RT. Enzyme, substrate labeled peptide and compound are mixed, and then the reaction is initiated with the addition of ATP at Km concentration for each enzyme. The reaction is allowed to run 60 minutes and then quenched with a 12.5 mM EDTA (ethylenediamine tetraacetic acid) solution. The plate is then developed with the addition of Europium labeled antibody for a final volume of 20 μL and is then incubated for 30 minutes in darkness. Plates are read in a Pherastar plate reader. Data is analyzed in GraphPad PRISM.
(§3) The results of these assays are shown in Table 1, below, wherein “No.” designates compound number (FIG. 1); “A” represents a value of ≤100 nM; “B” a value of >100 nM and ≤1 μM; “C” a value of >1 μM and ≤10 μM; “D” a value of >10 μM; “ND” is not determined. The ratio of Mer to FLT3 is calculated as follows: FLT3 IC50/Mer IC50. “+” represents a ratio of >2.0 and <10; “++” represents a ratio of between 10 and 100; and “+++” represents a ratio of >100.

Amino acid sequences for entries named in this document (tags omitted). Residues count along the entry.
UniProt P30530, 26-894 limits assumed: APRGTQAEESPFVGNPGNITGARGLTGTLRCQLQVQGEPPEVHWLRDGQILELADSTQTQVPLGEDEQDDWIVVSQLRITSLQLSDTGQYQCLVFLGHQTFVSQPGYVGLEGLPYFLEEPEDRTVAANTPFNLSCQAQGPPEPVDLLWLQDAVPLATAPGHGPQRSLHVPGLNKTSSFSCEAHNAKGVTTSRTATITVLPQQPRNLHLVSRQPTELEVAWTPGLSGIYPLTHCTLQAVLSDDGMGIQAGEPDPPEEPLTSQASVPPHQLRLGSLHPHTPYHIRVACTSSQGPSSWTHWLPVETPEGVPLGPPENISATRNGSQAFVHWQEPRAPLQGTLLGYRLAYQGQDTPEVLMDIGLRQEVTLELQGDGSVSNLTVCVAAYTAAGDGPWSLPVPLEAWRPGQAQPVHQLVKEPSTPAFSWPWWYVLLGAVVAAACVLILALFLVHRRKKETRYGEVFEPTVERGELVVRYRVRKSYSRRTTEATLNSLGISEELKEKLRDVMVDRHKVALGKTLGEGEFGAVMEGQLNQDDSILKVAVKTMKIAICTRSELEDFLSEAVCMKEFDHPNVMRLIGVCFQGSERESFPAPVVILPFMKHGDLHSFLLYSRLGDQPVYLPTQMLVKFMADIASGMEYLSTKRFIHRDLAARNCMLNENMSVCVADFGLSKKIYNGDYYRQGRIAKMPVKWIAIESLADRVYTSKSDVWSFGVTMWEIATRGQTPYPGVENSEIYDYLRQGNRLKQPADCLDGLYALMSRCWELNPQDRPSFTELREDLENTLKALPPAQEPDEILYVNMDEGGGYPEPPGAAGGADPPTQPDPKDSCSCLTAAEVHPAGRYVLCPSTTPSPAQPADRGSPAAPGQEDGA
UniProt P36888, 27-993 limits assumed: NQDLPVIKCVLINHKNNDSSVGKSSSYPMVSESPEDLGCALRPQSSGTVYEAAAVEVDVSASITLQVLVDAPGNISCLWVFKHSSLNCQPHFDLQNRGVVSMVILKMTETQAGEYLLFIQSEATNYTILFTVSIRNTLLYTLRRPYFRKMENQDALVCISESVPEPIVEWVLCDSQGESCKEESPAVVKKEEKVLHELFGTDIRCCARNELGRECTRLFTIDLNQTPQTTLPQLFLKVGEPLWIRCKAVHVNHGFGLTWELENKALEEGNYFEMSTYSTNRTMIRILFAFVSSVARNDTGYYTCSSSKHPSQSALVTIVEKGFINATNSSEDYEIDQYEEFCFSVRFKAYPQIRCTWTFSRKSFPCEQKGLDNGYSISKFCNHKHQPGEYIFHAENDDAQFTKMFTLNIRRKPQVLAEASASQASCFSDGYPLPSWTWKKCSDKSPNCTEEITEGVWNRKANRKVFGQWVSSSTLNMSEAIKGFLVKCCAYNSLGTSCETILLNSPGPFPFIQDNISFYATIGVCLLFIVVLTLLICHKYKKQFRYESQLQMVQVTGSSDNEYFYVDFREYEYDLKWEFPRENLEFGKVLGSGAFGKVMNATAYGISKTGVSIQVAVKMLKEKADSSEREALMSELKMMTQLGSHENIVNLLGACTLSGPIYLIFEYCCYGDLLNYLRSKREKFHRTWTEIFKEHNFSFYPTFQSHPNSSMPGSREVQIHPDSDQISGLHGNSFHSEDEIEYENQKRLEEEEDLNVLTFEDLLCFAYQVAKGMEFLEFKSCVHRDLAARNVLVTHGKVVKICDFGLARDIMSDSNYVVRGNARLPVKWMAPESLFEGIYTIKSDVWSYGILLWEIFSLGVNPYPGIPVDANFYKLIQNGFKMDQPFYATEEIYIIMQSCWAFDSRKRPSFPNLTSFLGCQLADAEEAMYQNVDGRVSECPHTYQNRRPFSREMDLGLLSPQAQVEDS
UniProt Q12866, 21-999 limits assumed: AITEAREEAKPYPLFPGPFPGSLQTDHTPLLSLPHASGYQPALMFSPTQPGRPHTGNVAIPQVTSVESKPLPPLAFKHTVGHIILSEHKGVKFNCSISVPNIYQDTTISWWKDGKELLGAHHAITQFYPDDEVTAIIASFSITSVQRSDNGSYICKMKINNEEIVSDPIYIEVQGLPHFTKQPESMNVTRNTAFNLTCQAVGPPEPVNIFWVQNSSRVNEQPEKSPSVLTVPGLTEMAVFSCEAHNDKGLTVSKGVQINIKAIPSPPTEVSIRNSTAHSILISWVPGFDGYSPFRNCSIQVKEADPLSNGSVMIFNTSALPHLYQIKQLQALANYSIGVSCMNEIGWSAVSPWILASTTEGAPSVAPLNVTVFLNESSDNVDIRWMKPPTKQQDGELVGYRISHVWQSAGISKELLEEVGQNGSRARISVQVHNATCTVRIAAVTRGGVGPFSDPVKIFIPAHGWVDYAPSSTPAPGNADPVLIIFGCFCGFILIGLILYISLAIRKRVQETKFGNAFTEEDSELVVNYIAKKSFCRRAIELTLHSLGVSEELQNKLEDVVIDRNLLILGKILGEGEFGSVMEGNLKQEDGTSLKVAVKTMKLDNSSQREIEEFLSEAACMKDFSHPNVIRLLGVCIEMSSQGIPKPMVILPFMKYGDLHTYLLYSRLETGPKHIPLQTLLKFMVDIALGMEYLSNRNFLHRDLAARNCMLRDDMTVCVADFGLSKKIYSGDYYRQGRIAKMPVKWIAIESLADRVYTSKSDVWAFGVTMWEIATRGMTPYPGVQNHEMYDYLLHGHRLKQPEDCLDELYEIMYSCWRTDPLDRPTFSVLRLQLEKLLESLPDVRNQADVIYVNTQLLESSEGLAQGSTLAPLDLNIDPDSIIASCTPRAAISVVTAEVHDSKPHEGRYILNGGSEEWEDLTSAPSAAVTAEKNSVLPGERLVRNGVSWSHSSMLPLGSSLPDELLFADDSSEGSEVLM
UniProt Q06418, 41-890 limits assumed: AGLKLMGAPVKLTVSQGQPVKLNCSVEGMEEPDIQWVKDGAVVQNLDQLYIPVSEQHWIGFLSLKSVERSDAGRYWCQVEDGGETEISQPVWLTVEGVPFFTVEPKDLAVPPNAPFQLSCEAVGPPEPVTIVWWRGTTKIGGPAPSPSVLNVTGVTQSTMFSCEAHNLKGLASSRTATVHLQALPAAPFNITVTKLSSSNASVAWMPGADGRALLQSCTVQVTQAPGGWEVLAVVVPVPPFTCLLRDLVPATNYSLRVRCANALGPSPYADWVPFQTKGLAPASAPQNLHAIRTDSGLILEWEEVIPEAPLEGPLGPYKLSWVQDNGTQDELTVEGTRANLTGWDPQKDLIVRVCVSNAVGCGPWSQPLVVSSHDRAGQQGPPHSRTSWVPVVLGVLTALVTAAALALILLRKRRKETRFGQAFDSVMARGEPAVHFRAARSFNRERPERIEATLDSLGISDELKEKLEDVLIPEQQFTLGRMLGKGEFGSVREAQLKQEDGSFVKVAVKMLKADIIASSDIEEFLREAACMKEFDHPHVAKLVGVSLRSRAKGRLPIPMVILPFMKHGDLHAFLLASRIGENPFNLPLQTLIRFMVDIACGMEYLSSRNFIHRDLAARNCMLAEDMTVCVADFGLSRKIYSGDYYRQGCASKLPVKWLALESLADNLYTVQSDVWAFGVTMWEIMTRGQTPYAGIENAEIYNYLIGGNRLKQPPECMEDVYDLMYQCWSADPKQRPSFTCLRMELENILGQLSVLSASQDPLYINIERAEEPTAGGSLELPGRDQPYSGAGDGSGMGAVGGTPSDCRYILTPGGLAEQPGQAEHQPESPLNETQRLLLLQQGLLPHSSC

Row | Structure (SMILES) | IC50
1 | COC[C@H](C)Nc1ncc2c(-c3cnn(C(C)(C)C(=O)N4CCOCC4)c3)cc(C3CCCc4[nH]ncc43)n2n1 (some centres unmarked) | 100 to 1000 nM
2 | COC[C@H](C)Nc1ncc2c(-c3cnn(C4COC4)c3)cc([C@H]3CC[C@@H](F)CC3)n2n1 | < 100 nM
3 | COC[C@H](C)Nc1ncc2c(-c3cnn(C(CO)CCl)c3)cc([C@H]3CC[C@H](N(C)C)CC3)n2n1 (some centres unmarked) | < 100 nM
4 | COC[C@H](C)Nc1ncc2c(-c3cnn(C(CO)CCl)c3)cc([C@H]3CC[C@@H](N(C)C)CC3)n2n1 (some centres unmarked) | 100 to 1000 nM
5 | COC[C@H](C)Nc1ncc2c(-c3cnn(C4COC4)c3)cc([C@H]3CC[C@@H](N(C)C)CC3)n2n1 | 100 to 1000 nM
6 | COC[C@H](C)Nc1ncc2c(C3=CC[C@H](C(=O)N4CCOCC4)CC3)cc([C@H]3CC[C@H](O)CC3)n2n1 | < 100 nM
7 | COC[C@H](C)Nc1ncc2c(-c3cnn(C[C@H]4CC(=O)N(C)C4)c3)cc([C@H]3CC[C@H](O)CC3)n2n1 [Compound 475] | < 100 nM

target: FLT3 (Homo sapiens, UniProt P36888); experiment: TR-FRET kinase activity assay, FLT3; conditions: read-out: Flt3 IC50, ATP at Km, 60 minutes

Row | Structure (SMILES) | IC50
8 | COC[C@H](C)Nc1ncc2c(-c3cnn(C(C)(C)C(=O)N4CCOCC4)c3)cc(C3CCCc4[nH]ncc43)n2n1 (some centres unmarked) | 1000 to 10000 nM
9 | COC[C@H](C)Nc1ncc2c(-c3cnn(C4COC4)c3)cc([C@H]3CC[C@@H](F)CC3)n2n1 | 100 to 1000 nM
10 | COC[C@H](C)Nc1ncc2c(-c3cnn(C(CO)CCl)c3)cc([C@H]3CC[C@H](N(C)C)CC3)n2n1 (some centres unmarked) | 100 to 1000 nM
11 | COC[C@H](C)Nc1ncc2c(-c3cnn(C(CO)CCl)c3)cc([C@H]3CC[C@@H](N(C)C)CC3)n2n1 (some centres unmarked) | 1000 to 10000 nM
12 | COC[C@H](C)Nc1ncc2c(-c3cnn(C4COC4)c3)cc([C@H]3CC[C@@H](N(C)C)CC3)n2n1 | 100 to 1000 nM
13 | COC[C@H](C)Nc1ncc2c(C3=CC[C@H](C(=O)N4CCOCC4)CC3)cc([C@H]3CC[C@H](O)CC3)n2n1 | < 100 nM
14 | COC[C@H](C)Nc1ncc2c(-c3cnn(C[C@H]4CC(=O)N(C)C4)c3)cc([C@H]3CC[C@H](O)CC3)n2n1 [Compound 475] | 100 to 1000 nM

target: MERTK (Homo sapiens, UniProt Q12866); experiment: TR-FRET kinase activity assay, MERTK; conditions: ratio calculated as FLT3 IC50/Mer IC50
Protocol: as §1, §2, §3

Row | Structure (SMILES) | FLT3/Mer ratio (FLT3 IC50/Mer IC50)
15 | COC[C@H](C)Nc1ncc2c(-c3cnn(C(C)(C)C(=O)N4CCOCC4)c3)cc(C3CCCc4[nH]ncc43)n2n1 (some centres unmarked) | +++ (“+++” represents a ratio of >100)
16 | COC[C@H](C)Nc1ncc2c(-c3cnn(C4COC4)c3)cc([C@H]3CC[C@@H](F)CC3)n2n1 | +++ (“+++” represents a ratio of >100)
17 | COC[C@H](C)Nc1ncc2c(-c3cnn(C(CO)CCl)c3)cc([C@H]3CC[C@H](N(C)C)CC3)n2n1 (some centres unmarked) | +++ (“+++” represents a ratio of >100)
18 | COC[C@H](C)Nc1ncc2c(-c3cnn(C(CO)CCl)c3)cc([C@H]3CC[C@@H](N(C)C)CC3)n2n1 (some centres unmarked) | +++ (“+++” represents a ratio of >100)
19 | COC[C@H](C)Nc1ncc2c(-c3cnn(C4COC4)c3)cc([C@H]3CC[C@@H](N(C)C)CC3)n2n1 | +++ (“+++” represents a ratio of >100)
20 | COC[C@H](C)Nc1ncc2c(C3=CC[C@H](C(=O)N4CCOCC4)CC3)cc([C@H]3CC[C@H](O)CC3)n2n1 | +++ (“+++” represents a ratio of >100)
21 | COC[C@H](C)Nc1ncc2c(-c3cnn(C[C@H]4CC(=O)N(C)C4)c3)cc([C@H]3CC[C@H](O)CC3)n2n1 [Compound 475] | +++ (“+++” represents a ratio of >100)

same assay, conditions: read-out: Mer IC50; TR-FRET activity assay, ATP at Km, 60 minutes

Row | Structure (SMILES) | IC50
22 | COC[C@H](C)Nc1ncc2c(-c3cnn(C(C)(C)C(=O)N4CCOCC4)c3)cc(C3CCCc4[nH]ncc43)n2n1 (some centres unmarked) | < 100 nM
23 | COC[C@H](C)Nc1ncc2c(-c3cnn(C4COC4)c3)cc([C@H]3CC[C@@H](F)CC3)n2n1 | < 100 nM
24 | COC[C@H](C)Nc1ncc2c(-c3cnn(C(CO)CCl)c3)cc([C@H]3CC[C@H](N(C)C)CC3)n2n1 (some centres unmarked) | < 100 nM
25 | COC[C@H](C)Nc1ncc2c(-c3cnn(C(CO)CCl)c3)cc([C@H]3CC[C@@H](N(C)C)CC3)n2n1 (some centres unmarked) | < 100 nM
26 | COC[C@H](C)Nc1ncc2c(-c3cnn(C4COC4)c3)cc([C@H]3CC[C@@H](N(C)C)CC3)n2n1 | < 100 nM
27 | COC[C@H](C)Nc1ncc2c(C3=CC[C@H](C(=O)N4CCOCC4)CC3)cc([C@H]3CC[C@H](O)CC3)n2n1 | < 100 nM
28 | COC[C@H](C)Nc1ncc2c(-c3cnn(C[C@H]4CC(=O)N(C)C4)c3)cc([C@H]3CC[C@H](O)CC3)n2n1 [Compound 475] | < 100 nM

target: TYRO3 (Homo sapiens, UniProt Q06418); experiment: TR-FRET kinase activity assay, TYRO3; conditions: read-out: Tyro3 IC50, ATP at Km, 60 minutes
Protocol: as §1, §2, §3

Row | Structure (SMILES) | IC50
29 | COC[C@H](C)Nc1ncc2c(-c3cnn(C(C)(C)C(=O)N4CCOCC4)c3)cc(C3CCCc4[nH]ncc43)n2n1 (some centres unmarked) | < 100 nM
30 | COC[C@H](C)Nc1ncc2c(-c3cnn(C4COC4)c3)cc([C@H]3CC[C@@H](F)CC3)n2n1 | < 100 nM
31 | COC[C@H](C)Nc1ncc2c(-c3cnn(C(CO)CCl)c3)cc([C@H]3CC[C@H](N(C)C)CC3)n2n1 (some centres unmarked) | < 100 nM
32 | COC[C@H](C)Nc1ncc2c(-c3cnn(C(CO)CCl)c3)cc([C@H]3CC[C@@H](N(C)C)CC3)n2n1 (some centres unmarked) | < 100 nM
33 | COC[C@H](C)Nc1ncc2c(-c3cnn(C4COC4)c3)cc([C@H]3CC[C@@H](N(C)C)CC3)n2n1 | < 100 nM
34 | COC[C@H](C)Nc1ncc2c(C3=CC[C@H](C(=O)N4CCOCC4)CC3)cc([C@H]3CC[C@H](O)CC3)n2n1 | < 100 nM
35 | COC[C@H](C)Nc1ncc2c(-c3cnn(C[C@H]4CC(=O)N(C)C4)c3)cc([C@H]3CC[C@H](O)CC3)n2n1 [Compound 475] | < 100 nM
